The source of these data is patent US8741915B2, “Dihydropyrimidin-2(1H)-one compounds as S-nitrosoglutathione reductase inhibitors” (N30 Pharmaceuticals, Inc., priority 2009, dated 2014).

Amino acid sequences for entries named in this document (tags omitted). A change or cut given only in a name is not applied to a line headed by its entry.
UniProt P11766: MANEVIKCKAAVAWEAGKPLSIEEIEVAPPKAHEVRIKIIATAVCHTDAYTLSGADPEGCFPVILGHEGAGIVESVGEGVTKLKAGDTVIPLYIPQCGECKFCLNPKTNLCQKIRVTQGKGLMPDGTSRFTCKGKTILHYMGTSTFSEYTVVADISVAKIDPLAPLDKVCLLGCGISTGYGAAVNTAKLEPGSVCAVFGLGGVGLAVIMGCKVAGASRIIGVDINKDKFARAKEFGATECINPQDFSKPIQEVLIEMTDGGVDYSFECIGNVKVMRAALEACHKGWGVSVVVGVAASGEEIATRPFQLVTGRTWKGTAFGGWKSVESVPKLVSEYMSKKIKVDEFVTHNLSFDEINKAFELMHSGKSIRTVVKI

The target in this experiment is GSNOR (Homo sapiens (Human), UniProt P11766). As to the kind of experiment: GSNOR assay (inhibition of GSNOR activity in vitro, change in 340 nm absorbance with GSNO/NADH). The following applies: GSNOR IC50, Table 1, racemates and separated enantiomers.

Usually IC50 stands for the concentration needed to halve the response being measured. Compound `CCOc1cc([C@@H]2NC(=O)NC(c3ccccc3)=C2c2ccsc2)cc([N+](=O)[O-])c1O` [Example 6, (S)-4-(3-ethoxy-4-hydroxy-5-nitrophenyl)-6-phenyl-5-(thiophen-3-yl)-3,4-dihydropyrimidin-2(1H)-one] showed an IC50 of 18 nM.
